The list shows a part of the results, in another mix than the full data. Activity calls are given as the source filed them.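 The calls were made as follows: active = inhibition above a per-plate cutoff, the mean of that plate's test compounds plus 3 SD (cut at about 27% in these data); inactive = the rest.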
Biological target: Muscarinic acetylcholine receptor M5 (Homo sapiens) (UniProt P08912)
Assay: CHRM5 blockers of acetylcholine calcium response – CHO cells, Fluo-8 calcium fluorescence, primary screen (AID 624040);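 also: 0% = acetylcholine EC80 with DMSO and 100% = DMSO without agonist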
Conditions: CHO-hM5 cells, ACh EC80, at 3 µM, hits give high values

The chains behind the UniProt entries cited, without tags or fusion partners.
UniProt P08912, whole entry, looked up: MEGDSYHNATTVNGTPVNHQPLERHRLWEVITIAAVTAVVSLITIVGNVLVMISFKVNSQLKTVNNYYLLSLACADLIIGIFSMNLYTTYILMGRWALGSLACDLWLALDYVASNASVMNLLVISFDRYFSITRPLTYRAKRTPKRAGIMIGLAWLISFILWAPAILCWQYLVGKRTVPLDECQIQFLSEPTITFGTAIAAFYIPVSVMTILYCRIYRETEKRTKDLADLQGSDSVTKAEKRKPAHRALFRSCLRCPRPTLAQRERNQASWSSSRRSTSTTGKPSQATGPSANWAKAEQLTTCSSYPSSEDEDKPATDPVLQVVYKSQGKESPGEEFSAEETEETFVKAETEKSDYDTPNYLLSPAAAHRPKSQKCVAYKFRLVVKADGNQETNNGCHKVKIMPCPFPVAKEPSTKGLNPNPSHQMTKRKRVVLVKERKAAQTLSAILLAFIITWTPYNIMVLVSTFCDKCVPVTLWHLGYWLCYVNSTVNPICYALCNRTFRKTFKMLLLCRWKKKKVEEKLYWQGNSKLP

Q: For `CC(C)=N/N=C(\N)N[N+](=O)[O-]`, which inhibition is on record?
A: The inhibition was inactive: -5.39%.

Q: How did the inhibition turn out when `CC(C)c1nc(Nc2ccccc2)n(P(=O)(N(C)C)N(C)C)n1` was run?
A: Its inhibition is inactive: 0.36%.

Q: `CN(C)C(=O)OCCc1n(C)cc[n+]1C` was tested. Which inhibition did it give?
A: The inhibition was inactive: 3.86%.

Q: `O=P1(N(CCCl)CCCl)OCCCS1` (stereo unspecified) was tested. Which inhibition did it give?
A: Its inhibition is inactive: -11%.

Q: For `O=C(Nc1cc([As](=O)(O)O)ccc1O)c1ccccc1`, which inhibition is on record?
A: Its inhibition is inactive: -1.76%.

Q: How did the inhibition turn out when `O=[N+]([O-])c1ncn(CCn2ncnc2[N+](=O)[O-])n1` was run?
A: Its inhibition is inactive: -8.94%.

Q: `CC(C)(C)C(=O)NC(Sc1ccncn1)C(Cl)(Cl)Cl` (stereo unspecified) was tested. Which inhibition did it give?
A: Its inhibition is inactive: 0.8%.

Q: How did the inhibition turn out when `C/C=C1/C[C@@H](C)[C@](O)(CO)C(=O)OCC2=CCN3CC[C@@H](OC1=O)[C@@H]23` was run?
A: Its inhibition is inactive: -0.19%.

Q: With `O=C(O)CNc1ccc([As](=O)(O)O)cc1` as the molecule, how does the inhibition read?
A: The inhibition was inactive: 3.51%.

Q: Which inhibition does the source give for `O=[N+]([O-])c1cccc(NC2=NCC(CBr)S2)c1` (stereo unspecified) here?
A: The inhibition was inactive: 14.1%.

Q: Which inhibition does the source give for `COC(=O)C1(C)COP(=O)(Nc2ccccc2)OC1` (stereo unspecified) here?
A: The inhibition was inactive: 3.7%.

Q: `CN(C)P(=O)(N(C)C)n1c(Nc2ccccc2)nnc1-c1ccccc1` was tested. Which inhibition did it give?
A: The inhibition was inactive: 4.22%.

Q: `O=P(Nc1nc2ccc(Cl)cc2s1)(c1ccccc1)c1ccccc1` was tested. Which inhibition did it give?
A: The inhibition was inactive: 9.87%.

Q: Which inhibition does the source give for `O=C(O)c1ccccc1[As](=O)(O)O` here?
A: The inhibition was inactive: -0.62%.

Q: With `CC(=O)Nc1ccc([As](=O)(O)O)cc1` as the molecule, how does the inhibition read?
A: Its inhibition is inactive: -4.71%.

Q: How did the inhibition turn out when `CC(=O)O[C@]1(C)C(=O)OC/C2=C/CN(C)CCC(OC(=O)[C@@](O)(C(C)O)C[C@H]1C)C2=O` (stereo partly specified) was run?
A: Its inhibition is inactive: 10.4%.

Q: With `CCCC1OP(N)(=O)OCC1CC` (stereo unspecified) as the molecule, how does the inhibition read?
A: The inhibition was inactive: 4.02%.

Q: For `CCOP(=O)(Nc1ccccc1)OCC`, which inhibition is on record?
A: Its inhibition is inactive: -3.56%.

Q: How did the inhibition turn out when `Cc1cc(SC(NC(=O)c2ccc(F)cc2)C(Cl)(Cl)Cl)ncn1` (stereo unspecified) was run?
A: The inhibition was inactive: -4.78%.

Q: For `CN(C(=O)Cc1ccc(Cl)c(Cl)c1)[C@H]1CCCC[C@@H]1N1CCCC1`, which inhibition is on record?
A: Its inhibition is inactive: 0.42%.

Q: Which inhibition does the source give for `Cc1ccc(NP(=O)(Oc2ccccc2F)Oc2ccccc2F)nc1` here?
A: The inhibition was inactive: 17.5%.

Q: With `Nc1cccc2ccc([As](=O)(O)O)cc12` as the molecule, how does the inhibition read?
A: Its inhibition is inactive: 10.2%.

Q: For `CCN(N=Nc1nonc1N)c1nonc1N`, which inhibition is on record?
A: Its inhibition is inactive: 3.34%.

Q: With `CN(C(=O)Cc1ccc(Cl)c(Cl)c1)[C@H]1CCCC[C@H]1N1CCCC1` as the molecule, how does the inhibition read?
A: Its inhibition is inactive: 2.4%.

Q: `Cc1ccc(N/C(=N/P(=O)(N2CCOCC2)N2CCOCC2)N2CCOCC2)cc1` was tested. Which inhibition did it give?
A: The inhibition was inactive: 4.6%.

Q: For `NC(=O)c1cc([N+](=O)[O-])cc([N+](=O)[O-])c1N`, which inhibition is on record?
A: The inhibition was inactive: -0.22%.

Q: Which inhibition does the source give for `Clc1ccc(Cl)c(NC2=NCC(CBr)S2)c1` (stereo unspecified) here?
A: Its inhibition is inactive: -5.5%.

Q: `CN1CCCC(OC(=O)C(c2ccccc2)c2ccccc2)C1` (stereo unspecified) was tested. Which inhibition did it give?
A: The inhibition was active: 55.6%.

Q: How did the inhibition turn out when `CC(C)[C@H]1C(=O)O[C@@H]2CCN3CC=C(COC(=O)[C@](C)(O)[C@]1(C)O)[C@H]23` was run?
A: The inhibition was inactive: 4.84%.

Q: How did the inhibition turn out when `COc1ccccc1OP(=O)(Nc1ccc(C)cn1)Oc1ccccc1OC` was run?
A: The inhibition was inactive: -4.84%.

Q: With `Cc1ccc(OP(=O)(Nc2nccs2)Oc2ccc(C)cc2)cc1` as the molecule, how does the inhibition read?
A: Its inhibition is inactive: 1.61%.

Q: For `Oc1ccccc1CNc1ccccn1`, which inhibition is on record?
A: The inhibition was inactive: -2.07%.

Q: Which inhibition does the source give for `O=C(NC(Sc1ccncn1)C(Cl)(Cl)Cl)c1ccccc1` (stereo unspecified) here?
A: The inhibition was inactive: -6.89%.

Q: How did the inhibition turn out when `CC(C)CC(=O)NC(Sc1ccc(Cl)cc1)C(Cl)(Cl)Cl` (stereo unspecified) was run?
A: Its inhibition is inactive: 0.07%.

Q: With `Nc1cc(N)c2nonc2c1[N+](=O)[O-]` as the molecule, how does the inhibition read?
A: Its inhibition is inactive: 12.5%.

Q: How did the inhibition turn out when `O=[N+]([O-])C1C(O)C(O)C([N+](=O)[O-])C(O)C1O` (stereo unspecified) was run?
A: The inhibition was inactive: 0.8%.

Q: How did the inhibition turn out when `O=P1(Nc2nc3ccc(Cl)cc3s2)COc2ccccc2O1` (stereo unspecified) was run?
A: Its inhibition is inactive: 1.06%.

Q: Which inhibition does the source give for `CCOc1ccc(C2=NCC(CBr)S2)cc1` (stereo unspecified) here?
A: Its inhibition is inactive: -3.35%.

Q: Which inhibition does the source give for `CC(C)(C)C(=O)NC(Sc1ccccc1)C(Cl)(Cl)Cl` (stereo unspecified) here?
A: The inhibition was inactive: -5.12%.

Q: Which inhibition does the source give for `CCc1cc(O)c([N+](=O)[O-])c(C)c1[N+](=O)[O-]` here?
A: Its inhibition is inactive: -1.56%.

Q: With `CCN(CC)CCOC(=O)C(O)(c1ccccc1)c1ccccc1` as the molecule, how does the inhibition read?
A: The inhibition was active: 98.5%.

Q: For `Cc1ccccc1CN(C)C(=O)COC(=O)C(O)(c1ccccc1)c1ccccc1`, which inhibition is on record?
A: The inhibition was inactive: 0.96%.

Q: How did the inhibition turn out when `C[C@@H]1C=CCP(=O)(Oc2ccccc2)O1` (stereo partly specified) was run?
A: The inhibition was inactive: 13%.

Q: Which inhibition does the source give for `C[C@H]1OP(=O)(Oc2ccccc2)C[C@@H]2O[C@@H]21` (stereo partly specified) here?
A: The inhibition was inactive: 0.94%.

Q: Which inhibition does the source give for `N#C/C(=C\c1ccc(N(CCBr)CCBr)cc1)C(N)=O` here?
A: Its inhibition is inactive: 18.3%.

Q: For `CC(=O)c1ccc(N2CC2c2ccncc2)cc1` (stereo unspecified), which inhibition is on record?
A: Its inhibition is inactive: 3.29%.

Q: With `CC1C(=O)OC2CCN3CC=C(COC(=O)C(C)(O)C1(C)O)C23` (stereo unspecified) as the molecule, how does the inhibition read?
A: Its inhibition is inactive: 5.91%.

Q: Which inhibition does the source give for `COC(=O)C1(C)COP(=O)(NCc2ccccc2)OC1` (stereo unspecified) here?
A: Its inhibition is inactive: 7.13%.

Q: `CC(=O)Nc1ccc([As](=O)(O)O)c(O)c1` was tested. Which inhibition did it give?
A: Its inhibition is inactive: 8.27%.

Q: With `CC(=O)Nc1ccc(Oc2c([N+](=O)[O-])cc([N+](=O)[O-])cc2[N+](=O)[O-])cc1` as the molecule, how does the inhibition read?
A: Its inhibition is inactive: 1.14%.

Q: With `c1ccc(-c2nn[nH]n2)c(-c2nn[nH]n2)c1` as the molecule, how does the inhibition read?
A: Its inhibition is inactive: -4.73%.

Q: `Cc1ccc(NP(=O)(Oc2cccc(C)c2)Oc2cccc(C)c2)nc1` was tested. Which inhibition did it give?
A: The inhibition was inactive: -3.28%.

Q: For `C=C1C(=O)OC2CCN3CC=C(COC(=O)C(C)(O)C4(CO4)C1C)C23` (stereo unspecified), which inhibition is on record?
A: The inhibition was inactive: 2%.

Q: How did the inhibition turn out when `O=C(NC1CCS(=O)(=O)C1)NP(=S)(Oc1ccccc1)Oc1ccccc1` (stereo unspecified) was run?
A: Its inhibition is inactive: -0.85%.

Q: With `CCNC(=S)/N=C(\N)N[N+](=O)[O-]` as the molecule, how does the inhibition read?
A: The inhibition was inactive: 6%.

Q: How did the inhibition turn out when `CC1C(=O)OC2CCN3CC4OC4(COC(=O)C(C)(O)C1(C)O)C23` (stereo unspecified) was run?
A: Its inhibition is inactive: 5.02%.

Q: `O=P1(N(CCCl)CCCl)OCCC2CCCCN21` (stereo unspecified) was tested. Which inhibition did it give?
A: Its inhibition is inactive: 11.7%.

Q: With `Clc1ccc(N2CCN(Cc3c[nH]c4ncccc34)CC2)cc1` as the molecule, how does the inhibition read?
A: The inhibition was inactive: -8.15%.

Q: Which inhibition does the source give for `CCC(=O)N1C2C3N(C(=O)CC)C1C1N(C(=O)CC)C(C(N1C(=O)CC)N3C(=O)CC)N2C(=O)CC` here?
A: The inhibition was inactive: 5.67%.

Q: How did the inhibition turn out when `COC(=O)c1cc2c(s1)N=C(c1ccccc1)N(C)P2(=O)N1CCOCC1` (stereo unspecified) was run?
A: The inhibition was inactive: -3.34%.

Q: `Cc1ccc(OP(=O)(Nc2ccccn2)Oc2ccc(C)cc2)cc1` was tested. Which inhibition did it give?
A: Its inhibition is inactive: 8%.

Q: Which inhibition does the source give for `CC(=O)NC(SC(=S)N(CC(C)C)CC(C)C)C(Cl)(Cl)Cl` (stereo unspecified) here?
A: Its inhibition is inactive: -5.65%.

Q: `Cc1ccccc1OP(=O)(Nc1ccccn1)Oc1ccccc1C` was tested. Which inhibition did it give?
A: The inhibition was inactive: 6.29%.

Q: Which inhibition does the source give for `CC(NC(=O)COC(=O)C(O)(c1ccccc1)c1ccccc1)c1ccccc1` (stereo unspecified) here?
A: Its inhibition is inactive: 7.23%.

Q: `CN(C)C(=O)Oc1noc2ccccc12` was tested. Which inhibition did it give?
A: Its inhibition is inactive: 7.93%.

Q: How did the inhibition turn out when `O=c1c2cc([N+](=O)[O-])ccc2[nH]c2c([N+](=O)[O-])cc([N+](=O)[O-])cc12` was run?
A: Its inhibition is inactive: 7.83%.

Q: With `CCN(C(=O)COC(=O)C(O)(c1ccccc1)c1ccccc1)c1c(N)n(Cc2ccccc2)c(=O)[nH]c1=O` as the molecule, how does the inhibition read?
A: Its inhibition is inactive: 3.24%.

Q: `O=P(Nc1ccccn1)(c1ccc(Br)cc1)c1ccc(Br)cc1` was tested. Which inhibition did it give?
A: Its inhibition is inactive: -3.42%.

Q: How did the inhibition turn out when `Nc1ccc(CCCCOc2ccccc2)cc1` was run?
A: The inhibition was inactive: 1.54%.

Q: `COc1ccc(N)c([N+](=O)[O-])c1[N+](=O)[O-]` was tested. Which inhibition did it give?
A: Its inhibition is inactive: 7.55%.

Q: With `O=P(Nc1nc2ccccc2s1)(c1ccccc1)c1ccccc1` as the molecule, how does the inhibition read?
A: The inhibition was inactive: 12.2%.

Q: How did the inhibition turn out when `C[C@H]1OP(=O)(Oc2ccccc2)[C@H](O)[C@H](O)[C@H]1N=[N+]=[N-]` (stereo partly specified) was run?
A: Its inhibition is inactive: 5.56%.

Q: `O=[As](O)(c1ccccc1)c1ccc(O)cc1` was tested. Which inhibition did it give?
A: Its inhibition is inactive: 13%.

Q: With `O=[N+]([O-])c1ncn(CCn2cnc([N+](=O)[O-])n2)n1` as the molecule, how does the inhibition read?
A: The inhibition was inactive: -10.5%.

Q: How did the inhibition turn out when `CC(=O)NC(SC(=S)N(C)C)C(Cl)(Cl)Cl` (stereo unspecified) was run?
A: The inhibition was inactive: 0.22%.

Q: `O=[N+]([O-])c1ccc(O)c(/C=N/Nc2ccc([N+](=O)[O-])cc2[N+](=O)[O-])c1` was tested. Which inhibition did it give?
A: Its inhibition is inactive: -2.72%.

Q: With `Nc1ccc([As](=O)(O)c2ccc([N+](=O)[O-])cc2)cc1` as the molecule, how does the inhibition read?
A: Its inhibition is inactive: 14%.

Q: `C(Cc1nn[nH]n1)Cc1nn[nH]n1` was tested. Which inhibition did it give?
A: Its inhibition is inactive: -3.31%.

Q: With `O=P(Nc1nccs1)(c1ccccc1)c1ccccc1` as the molecule, how does the inhibition read?
A: The inhibition was inactive: -3.94%.

Q: `CC(C)C(=O)NC(Sc1ccccc1)C(Cl)(Cl)Cl` (stereo unspecified) was tested. Which inhibition did it give?
A: Its inhibition is inactive: -11.7%.

Q: Which inhibition does the source give for `c1nnnn1CCn1cnnn1` here?
A: The inhibition was inactive: -0.65%.

From PubChem BioAssay AID624040 (The Scripps Research Institute Molecular Screening Center, 2012)
